# Screening results from PubChem BioAssay.
# miR122 inh = miR-122 Renilla sensor signal increase in Huh7, primary screen, miR-122 inhibitor project, cell-based, single point, plate reader. Huh7 miR-122 Renilla luciferase sensor, 48 h; neutral wells = 0, positive control = 100. activation (reporter increase), % at 12.5 µM. 340,000 compounds, 0.3% hits. AID 602342, 2012;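 active = mean replicate activation score at least 90 and every replicate individually at or above 90; inconclusive = only one of the two criteria met; inactive = neither criterion met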;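 note: higher luciferase means less miR-122 activity so hits act as miR-122 inhibitors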
# MITF TRPM1 inh = inhibitors of MITF-dependent TRPM1 promoter reporter, primary screen, cell-based, SK-MEL-5, single point, luciferase; SK-MEL-5 TRPM1 promoter luciferase, 24 h; inhibition, % at 12.5 µM; 330,000 compounds, 0.83% hits; AID 488899, 2010;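 active = mean inhibition across replicates of 60% or more, whatever share of single replicates reaches that level; inconclusive = some that reach 60%, reason not given; inactive = mean inhibition across replicates below 60%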
# PGC1a acetyl inh = inhibitors of PGC1a acetylation signal, primary screen, cell-based, U2OS, AlphaScreen, inhibitor mode; AlphaScreen anti-acetyl-lysine; with virally co-expressed GCN5 acetyltransferase; AID 651687, 2012; 350,000 compounds, 0.17% hits; inhibition, % at 15.6 µM;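 active = every replicate shows inhibition of at least 40%; inconclusive = mean inhibition at least 40% but some replicate below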;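 note: 0% = neutral control wells and 100% = positive control wells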
# MITF TRPM1 HTS = activators of MITF-driven TRPM1 promoter reporter, primary screen, cell-based, SK-MEL-5, luciferase, single point | SK-MEL-5 TRPM1-promoter luciferase, 24 h; % of positive control, neutral wells = 0 | activation, % at 12.5 µM | 300,000 compounds, 0.75% hits | AID 588334, 2011;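 active = mean activation of at least 80% with every replicate also reaching 80%; inconclusive = mean reaches 80% but some replicate falls short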;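 note: 0% = neutral control wells and 100% = parthenolide positive control wells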
# Yeast UUG start-1 = modulators of start codon recognition fidelity in yeast; AID 602363; activity score, % at 18.7 µM; S. cerevisiae UUG-firefly luciferase reporter, luminescence/redox ratio; actives 0.13% (n = 350,000);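 active = replicate mean at a twofold rise or more, about +100% in these data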;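 note: firefly luciferase made from a UUG start codon reports start codon fidelity; reporter light over untreated wells divided by growth signal over untreated wells; some hits fall short of that in this replicate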
# Wnt bcat act = Wnt/beta-catenin pathway activators, primary screen, cell-based, plate reader, single point; Wnt/beta-catenin reporter cell assay, activator; AID 743398, 2014; activation, % at 9.35 µM; 300,000 compounds, 1.2% hits; in the data active = activation above about 30%, passing the limit was not always enough; inconclusive = no clear call, values can overlap the other calls;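 note: 0% = neutral control wells and 100% = positive control wells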
# Yeast UUG start-2 = enhancers of UUG start codon usage in yeast, dose response, S. cerevisiae, UUG firefly luciferase, cherry-pick, set 2; shares compounds with Yeast UUG start-1; luminescence, 4 h; 100% means double the DMSO signal; activation, % at 38 µM; 540 tested, under 10 active; AID 652061, 2013;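 active = signal increase whose fitted curve reaches an absolute level of 40 at a concentration under 10 µM; inactive = activity opposite to the expected increase, or the rest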
# * = called active by the depositor; i = inactive; ? = inconclusive; · = no result given; [ ] = remark or other dose. Hits are enriched below; roughly 2.1% of the tested compounds scored in any of these assays.
# Start of the listing, in advance, two compounds:
Structure | Yeast UUG start-1 | MITF TRPM1 inh | Wnt bcat act | Yeast UUG start-2 | miR122 inh | MITF TRPM1 HTS | PGC1a acetyl inh
CC(C)CC#Cc1ccc2c(c1)O[C@@H](CN(C)C(=O)c1cccnc1)[C@@H](C)CN([C@@H](C)CO)S2(=O)=O | 121* | · | · | i | 16[16.7 µM] | · | -9
C[C@@H]1CN([C@H](C)CO)S(=O)(=O)c2ccc(-c3cccc(F)c3)cc2O[C@@H]1CN(C)S(=O)(=O)c1ccc(F)cc1 | -15 | · | · | · | 9[16.7 µM] | · | 2

# The listing, repeating the preview:
Structure | Yeast UUG start-1 | MITF TRPM1 inh | Wnt bcat act | Yeast UUG start-2 | miR122 inh | MITF TRPM1 HTS | PGC1a acetyl inh
CC(C)CC#Cc1ccc2c(c1)O[C@@H](CN(C)C(=O)c1cccnc1)[C@@H](C)CN([C@@H](C)CO)S2(=O)=O | 121* | · | · | i | 16[16.7 µM] | · | -9
C[C@@H]1CN([C@H](C)CO)S(=O)(=O)c2ccc(-c3cccc(F)c3)cc2O[C@@H]1CN(C)S(=O)(=O)c1ccc(F)cc1 | -15 | · | · | · | 9[16.7 µM] | · | 2
Cc1ccc(S(=O)(=O)N(C)C[C@H]2Oc3cc(-c4cccc(F)c4)ccc3S(=O)(=O)N([C@@H](C)CO)C[C@@H]2C)cc1 | 106* | · | · | i | 11[16.7 µM] | · | -14
C[C@@H]1CN([C@@H](C)CO)S(=O)(=O)c2ccc(-c3cccnc3)cc2O[C@H]1CN(C)C(=O)c1cccc(F)c1 | 3 | · | · | · | 4[16.7 µM] | · | -19
C[C@@H]1CCCCO[C@@H](CN(C)Cc2ccncc2)[C@H](C)CN([C@@H](C)CO)C(=O)c2cc(NC(=O)CCCN(C)C)ccc2O1 | -7 | · | · | · | -6[16.7 µM] | · | 12
C[C@H]1CN([C@@H](C)CO)C(=O)c2ccccc2-c2ccccc2CO[C@@H]1CN(C)S(=O)(=O)c1cn(C)cn1 | · | · | · | · | · | · | 0
CN1C(=O)c2cc(NC(=O)Nc3ccccc3F)ccc2OC[C@@H]2O[C@@H](CC(=O)O)CC[C@H]21 | -1 | · | · | · | -7[16.7 µM] | · | -2
CCOc1ccccc1Nc1nc2ccccc2[nH]1 | 581* | -5 | · | -2 | 0 | · | -5
COc1ccc(NC(=O)Nc2ccc3c(c2)C(=O)N([C@H](C)CO)C[C@@H](C)[C@@H](CN(C)Cc2ccccc2)O3)cc1 | 4 | · | · | · | -3[16.7 µM] | · | -1
COc1ccc(NC(=S)N2CCCC2c2ccc(OC)c(OC)c2)cc1 (stereo unspecified) | 339* | -5 | -3 | 3 | -2 | 8 | -5
COc1ccc(C2CCCN2C(=S)Nc2cccc(C)c2)cc1OC (stereo unspecified) | · | -4 | -1 | · | · | 5 | -23
CN(C)c1ccc2c(c1)[C@@H]1C[C@H](CC(=O)N3CCc4ccccc4C3)O[C@@H](CO)[C@@H]1O2 | · | · | · | · | -5[16.7 µM] | · | -1
CCOC(=O)C1CCN(Cc2cnc(NC(=O)OC)s2)CC1 | -11 | 9 | · | · | -22 | · | ·
CCOC(=O)C1CCN(Cc2cnc(Oc3ccc(C(C)(C)C)cc3)s2)CC1 | 127* | -3 | -6 | 4 | -1 | 3 | 8
COc1cccc(Oc2ccc(OC)cc2C(=O)O)c1 | 117* | 6 | -1 | -17 | 3 | -4 | -4

# Some of the entries above, reformatted.
# Screens in order: Yeast UUG start-1, MITF TRPM1 inh, Wnt bcat act, Yeast UUG start-2, miR122 inh, MITF TRPM1 HTS, PGC1a acetyl inh
- COc1ccc(NC(=O)Nc2ccc3c(c2)C(=O)N([C@H](C)CO)C[C@@H](C)[C@@H](CN(C)Cc2ccccc2)O3)cc1
    4, ·, ·, ·, -3[16.7 µM], ·, -1
- CCOC(=O)C1CCN(Cc2cnc(Oc3ccc(C(C)(C)C)cc3)s2)CC1
    127*, -3, -6, 4, -1, 3, 8
- Cc1ccc(S(=O)(=O)N(C)C[C@H]2Oc3cc(-c4cccc(F)c4)ccc3S(=O)(=O)N([C@@H](C)CO)C[C@@H]2C)cc1
    106*, ·, ·, i, 11[16.7 µM], ·, -14

# Carrying on:
Structure | Yeast UUG start-1 | MITF TRPM1 inh | Wnt bcat act | Yeast UUG start-2 | miR122 inh | MITF TRPM1 HTS | PGC1a acetyl inh
O=C(C[C@@H]1CC[C@H](NC(=O)Nc2ccc(C(F)(F)F)cc2)[C@@H](CO)O1)NCc1cc(F)cc(F)c1 | · | · | · | · | · | · | 7
Cc1cc(NC(=O)COC(=O)COc2ccc(C(=O)c3ccccc3)cc2)no1 | 184* | 6 | 6 | 6 | -3 | · | 9
COc1ccc2oc(C(=O)OCC(=O)N3CCCCC3)c(C)c2c1 | -13 | -65 | 9 | · | -7 | 71 | 0
COc1ccc2oc(C(=O)OCC(=O)NCCc3ccccc3)c(C)c2c1 | -9 | -5 | 2 | 0 | -3 | 3 | ·
CCOc1ccc2oc(C(=O)OCC(=O)NC(=O)NC)c(C)c2c1 | -17 | -14 | 4 | -4 | -4 | 11 | 10
COc1ccc2oc(C(=O)OCC(=O)N3CCN(C(C)=O)CC3)c(C)c2c1 | -4 | -3 | -2 | 1 | · | 4 | ·
O=C(NC[C@H]1[C@H](c2ccccc2)[C@@H](CO)N1C(=O)Cc1cccnc1)C1CC1 | -7 | · | · | · | -21[16.7 µM] | · | -5
CCCNC(=O)N1CC2(CCN(CC3CCCCC3)CC2)c2c([nH]c3cc(OC)ccc23)[C@@H]1CO | · | · | · | · | · | · | -9
Cc1c(P(=O)(c2ccccc2)c2ccccc2)c2ccccc2n1C | 173* | · | 0 | 2 | 5 | · | ·
CCN(CC)CC(=O)N1c2ccccc2CCc2ccc(NC(=O)c3cc(OC)c(OC)c(OC)c3)cc21 | active | -5 | 2 | 0 | · | 7 | ?
O=C(Nc1ccc(F)cc1)c1ccccc1Oc1ccc(C(F)(F)F)cc1[N+](=O)[O-] | · | 5 | · | · | · | -2 | ·
O=[N+]([O-])c1cc(C(F)(F)F)ccc1Oc1cccnc1[N+](=O)[O-] | 190* | -2 | -1 | 17 | -8 | -2 | 5
O=C(O)C[C@@H]1C[C@H]2c3cc(NC(=O)Nc4ccccc4F)ccc3O[C@H]2[C@H](CO)O1 | 5 | · | · | · | -1[16.7 µM] | · | 6
COCCNC(=O)C[C@H]1C[C@@H]2c3cc(NC(=O)c4ccc5c(c4)OCO5)ccc3O[C@@H]2[C@@H](CO)O1 | 7 | · | · | · | 2[16.7 µM] | · | -2
COCCNC(=O)C[C@H]1C[C@H]2c3cc(NC(=O)c4ccc5c(c4)OCO5)ccc3O[C@H]2[C@@H](CO)O1 | 137* | · | · | i | 10[16.7 µM] | · | 1
COC(=O)C[C@@H]1C[C@@H]2c3cc(NC(=O)Nc4ccccc4F)ccc3O[C@@H]2[C@@H](CO)O1 | 72* | · | · | i | 30[16.7 µM] | · | 1
CCN(CC)S(=O)(=O)c1ccc(NC(=O)COC(=O)CCc2cc(OC)c(OC)c(OC)c2)cc1 | · | -2 | -4 | 2 | · | 1 | ·
COc1cc(CCC(=O)OCC(=O)Nc2cccc(S(=O)(=O)N(C)C)c2)cc(OC)c1OC | · | 1 | -3 | · | · | 2 | ·
CC(C)NC(=O)N(C)C[C@@H]1Oc2ccc(NC(=O)C3CC3)cc2CC(=O)N([C@@H](C)CO)C[C@H]1C | -18 | · | · | · | 8[16.7 µM] | · | -2
O=C(O)CSc1nnc(-c2ccc(Cl)cc2)n1-c1ccccc1 | 124* | -14 | 1 | 0 | -5 | 11 | -4
C[C@H]1CN([C@@H](C)CO)C(=O)c2cc(NS(=O)(=O)c3ccccc3)ccc2O[C@H]1CN(C)S(C)(=O)=O | -7 | · | · | · | -25[16.7 µM] | · | 12
Cc1cc(N2CCOCC2)nc2ccc(NC(=O)C3CCCCC3)cc12 | -11 | · | 0 | · | 0 | · | ·
Cc1cc(N2CCOCC2)nc2ccc(NC(=S)N3CCCCC3C)cc12 (stereo unspecified) | 143* | 0 | -6 | 0 | 12 | 7 | -13
Fc1cccc(C2NN=C(c3ccccc3)S2)c1 (stereo unspecified) | 267* | -4 | -9 | -13 | 5 | 1 | -2
Cc1ccc(C2=NNC(c3cccc(F)c3)S2)cc1 (stereo unspecified) | · | 21 | 6 | · | · | -19 | ·
CC(C)NC(=O)N(C)C[C@H]1Oc2ncc(C#CC3CCCCC3)cc2C(=O)N([C@H](C)CO)C[C@H]1C | 1 | · | · | · | -7[16.7 µM] | · | -12
CC(C)C(=O)Nc1cccc(N2CCN(CCCN3C(=O)C4CCCCN4C3=O)CC2)c1 (stereo unspecified) | 105* | 1 | -3 | -3 | -17 | · | ·
